Source: US9242969B2, “Biaryl amide compounds as kinase inhibitors” (Novartis AG, priority 2013, dated 2016)

Sequences of proteins named here, by UniProt entry; tags and fusion partners are left off. Residues count along the entry.
UniProt P04049, 325-648 Y340E/Y341E: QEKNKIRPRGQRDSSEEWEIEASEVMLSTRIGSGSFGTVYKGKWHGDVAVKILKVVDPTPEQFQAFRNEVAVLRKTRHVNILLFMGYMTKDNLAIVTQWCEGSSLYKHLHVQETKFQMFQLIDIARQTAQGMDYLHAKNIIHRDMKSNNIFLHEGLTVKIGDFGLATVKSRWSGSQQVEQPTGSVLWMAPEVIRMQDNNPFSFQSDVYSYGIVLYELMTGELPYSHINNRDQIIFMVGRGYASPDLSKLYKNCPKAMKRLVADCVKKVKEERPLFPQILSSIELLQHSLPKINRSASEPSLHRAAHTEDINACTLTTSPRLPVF

What follows are compounds tested against C-Raf TR (Δ1-324 deletion mutant with activating mutations) (Homo sapiens (Human), UniProt P04049, Y340E/Y341E). Conditions: truncated C-Raf (Δ1-324), ATP 3 uM, 10 nM biotinylated MEK1 kinase dead.
Type: biochemical
`Cc1ccc(NC(=O)c2ccnc(C(C)(C)C#N)c2)cc1-c1cc(N2CCOCC2)ncn1` [Example 2, 2-(2-cyanopropan-2-yl)-N-(4-methyl-3-(6-morpholinopyrimidin-4-yl)phenyl)isonicotinamide] showed an IC50 of 2.95 nM.
With `Cc1ccc(NC(=O)c2cccc(C(F)(F)F)c2)cc1-c1cc(N2CCS(=O)(=O)CC2)nc(N2CCOCC2)n1` [Example 6, N-(3-(6-(1,1-dioxidothiomorpholino)-2-morpholinopyrimidin-4-yl)-4-methylphenyl)-3-(trifluoromethyl)benzamide] the IC50 was 0.408 nM.
Compound `Cc1ccc(NC(=O)c2cccc(C(F)(F)F)c2)cc1-c1cc(N2CCOCC2)nc(N2CCOCC2)n1` [Example 10, N-(3-(2,6-dimorpholinopyrimidin-4-yl)-4-methylphenyl)-3-(trifluoromethyl)benzamide] has an IC50 of 0.118 nM.
`Cc1ccc(NC(=O)c2cccc(C(F)(F)F)c2)cc1-c1nc(N2CCOCC2)cc(N2CCOCC2)n1` [Example 13, N-(3-(4,6-dimorpholinopyrimidin-2-yl)-4-methylphenyl)-3-(trifluoromethyl)benzamide] was tested, and the IC50 was 0.533 nM.
